Patent publication US20150148256A1, “BIOLUMINESCENCE IMAGING-BASED SCREENING ASSAY AND INHIBITORS OF ABCG2” (THE JOHNS HOPKINS UNIVERSITY, priority 2008, published 2015)

The chains behind the UniProt entries cited, without tags or fusion partners. Where a name states a change or a piece, a line headed by the entry shows the natural chain unless it says otherwise.
UniProt Q9UNQ0: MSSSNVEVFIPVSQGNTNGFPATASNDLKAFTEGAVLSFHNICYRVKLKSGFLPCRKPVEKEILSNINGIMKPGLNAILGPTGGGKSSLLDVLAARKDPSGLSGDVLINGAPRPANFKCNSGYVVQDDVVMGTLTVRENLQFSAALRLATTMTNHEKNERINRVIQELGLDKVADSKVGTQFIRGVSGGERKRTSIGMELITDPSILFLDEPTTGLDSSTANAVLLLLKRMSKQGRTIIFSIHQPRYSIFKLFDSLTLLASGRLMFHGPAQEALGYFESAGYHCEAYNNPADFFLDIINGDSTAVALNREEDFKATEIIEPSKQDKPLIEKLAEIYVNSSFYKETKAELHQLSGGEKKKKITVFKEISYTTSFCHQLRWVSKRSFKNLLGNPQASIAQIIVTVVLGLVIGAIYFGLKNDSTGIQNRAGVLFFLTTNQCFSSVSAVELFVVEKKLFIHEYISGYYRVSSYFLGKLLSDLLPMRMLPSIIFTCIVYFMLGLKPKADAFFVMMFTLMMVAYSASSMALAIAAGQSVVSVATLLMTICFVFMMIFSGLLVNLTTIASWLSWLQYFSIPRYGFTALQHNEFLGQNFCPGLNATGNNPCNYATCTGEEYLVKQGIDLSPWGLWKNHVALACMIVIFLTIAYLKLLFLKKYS

Target: ABCG2 (Homo sapiens, UniProt Q9UNQ0)

Substance: thiethylperazine malate
- Fold (BLI enhancement, S/B ratio over control): 2.6 fold
